Paper PMC11403621 (Journal of Medicinal Chemistry, 2024)

Experiments:
in vivo [1] = details: female, CD-1, mouse, po, 50 mg/kg
in vivo [2] = details: female, NOD-SCID gamma (NSG), mouse, po, 200 mg/kg

Question: With Cc1c(C(=O)NS(=O)(=O)N(C)C)cc(-c2ccc(Cl)c(Oc3ccccn3)c2)c2cc[nH]c12 as the molecule, how does the bioavailability at 24 h (in vivo [1]) read?
Answer: The bioavailability at 24 h was 99.8%.

Question: And the concentration at 8 h (in vivo [2]; plasma)?
Answer: The concentration at 8 h was 5.4 µM.

Question: What about the concentration at 8 h (in vivo [2]; tumor) of the same molecule?
Answer: Its concentration at 8 h is 70 µM.

Question: What about the concentration at 12 h (in vivo [2]; tumor) of the same molecule?
Answer: Its concentration at 12 h is 54 µM.
